Patent US9999619B2, “Piperidin-4-yl azetidine derivatives as JAK1 inhibitors” (Incyte Corporation, priority 2010, dated 2018)

Experiments:
[1] = target: human JAK1 (a.a. 837-1142); experiment: In vitro JAK kinase assay (HTRF, phosphorylation of a biotinylated peptide), JAK1; type: biochemical; conditions: ratio of JAK2 IC50 to JAK1 IC50, measured at 1 mM ATP
Procedure: (§1) Compounds herein were tested for inhibitory activity of JAK targets according to the following in vitro assay described in Park et al., Analytical Biochemistry 1999, 269, 94-104. The catalytic domains of human JAK1 (a.a. 837-1142), Jak2 (a.a. 828-1132) and Jak3 (a.a. 781-1124) with an N-terminal His tag were expressed using baculovirus in insect cells and purified. The catalytic activity of JAK1, JAK2 or JAK3 was assayed by measuring the phosphorylation of a biotinylated peptide. The phosphorylated peptide was detected by homogenous time resolved fluorescence (HTRF). […] Reactions were carried out at room temperature for 1 hr and then stopped with 20 μL 45 mM EDTA, 300 nM SA-APC, 6 nM Eu-Py20 in assay buffer (Perkin Elmer, Boston, Mass.). Binding to the Europium labeled antibody took place for 40 minutes and HTRF signal was measured on a Fusion plate reader (Perkin Elmer, Boston, Mass.).

[2] = target: human JAK1 (a.a. 837-1142) (Homo sapiens, UniProt P23458); experiment: as above; type: biochemical; conditions: measured at 1 mM ATP
Procedure: as §1

| IC50 Ratio JAK2/JAK1 [1] | IC50 [2] | SMILES |
| --- | --- | --- |
| 3.8 |  | N#CCC1(n2cc(-c3ncnc4[nH]ccc34)cn2)CN(C2CCN(C(=O)c3cccc(Cl)c3)CC2)C1 [Example 19, {1-[1-(3-chlorobenzoyl)piperidin-4-yl]-3-[4-(7H-pyrrolo[2,3-d]pyrimidin-4-yl)-1H-pyrazol-1-yl]azetidin-3-yl}acetonitrile] |
| 6.2 | 5 to 20 nM | N#CCC1(n2cc(-c3ncnc4[nH]ccc34)cn2)CN(C2CCN(C(=O)c3ccc(C#N)c(F)c3)CC2)C1 [Example 66, 4-[(4-{3-(cyanomethyl)-3-[4-(7H-pyrrolo[2,3-d]pyrimidin-4-yl)-1H-pyrazol-1-yl]azetidin-1-yl}piperidin-1-yl)carbonyl]-2-fluorobenzonitrile] |
| 3.8 | ≤ 5 nM | COc1cc(C(F)(F)F)sc1C(=O)N1CCC(N2CC(CC#N)(n3cc(-c4ncnc5[nH]ccc45)cn3)C2)CC1 [Example 70, {1-{1-[3-methoxy-5-(trifluoromethyl)-2-thienylcarbonyl]piperidin-4-yl}-3-[4-(7H-pyrrolo[2,3-d]pyrimidin-4-yl)-1H-pyrazol-1-yl]azetidin-3-yl}acetonitrile] |
| 3.9 |  | Cc1csc(C(=O)N2CCC(N3CC(CC#N)(n4cc(-c5ncnc6[nH]ccc56)cn4)C3)CC2)c1 [Example 79, {1-{1-[(4-meth1-2-thienyl)carbonyl]piperidin-4-yl}-3-[4-(7H-pyrrolo[2,3-d]pyrimidin-4-yl)-1H-pyrazol-1-yl]azetidin-3-yl}acetonitrile] |
| 15.9 |  | N#CCC1(n2cc(-c3ncnc4[nH]ccc34)cn2)CN(C2CCN(C(=O)c3ccnc(C(F)(F)F)n3)CC2)C1 [Example 85, [3-[4-(7H-pyrrolo[2,3-d]pyrimidin-4-yl)-1H-pyrazol-1-yl]-1-(1-{[2-(trifluoromethyl)pyrimidin-4-yl]carbonyl}piperidin-4-yl)azetidin-3-yl]acetonitrile] |
| 1.4 | 5 to 20 nM | Cc1ccc(C#N)c(N2CCC(C(=O)N3CCC(N4CC(CC#N)(n5cc(-c6ncnc7[nH]ccc67)cn5)C4)CC3)CC2)n1 [Example 108, 2-{4-[(4-{3-(cyanomethyl)-3-[4-(7H-pyrrolo[2,3-d]pyrimidin-4-yl)-1H-pyrazol-1-yl]azetidin-1-yl}piperidin-1-yl)carbonyl]piperidin-1-yl}-6-methylnicotinonitrile] |
| 2.1 |  | N#CCC1(n2cc(-c3ncnc4[nH]ccc34)cn2)CN(C2CCN(C(=O)c3ccc(-c4cccnc4)cc3F)CC2)C1 [Example 120, {1-[1-(2-fluoro-4-pyridin-3-ylbenzoyl)piperidin-4-yl]-3-[4-(7H-pyrrolo[2,3-d]pyrimidin-4-yl)-1H-pyrazol-1-yl]azetidin-3-yl}acetonitrile] |
| 2.5 | 5 to 20 nM | N#CCC1(n2cc(-c3ncnc4[nH]ccc34)cn2)CN(C2CCN(C(=O)c3ccc(-c4nccs4)c(F)c3)CC2)C1 [Example 122, {1-{1-[3-fluoro-4-(1,3-thiazol-2-yl)benzoyl]piperidin-4-yl}-3-[4-(7H-pyrrolo[2,3-d]pyrimidin-4-yl)-1H-pyrazol-1-yl]azetidin-3-yl}acetonitrile] |
| 22.0 |  | N#CCC1(n2cc(-c3ncnc4[nH]ccc34)cn2)CN(C2CCN(C(=O)Nc3ccc(F)cc3C(F)(F)F)CC2)C1 [Example 154, 4-{3-(Cyanomethyl)-3-[4-(7H-pyrrolo[2,3-d]pyrimidin-4-yl)-1H-pyrazol-1-yl]azetidin-1-yl}-N-[4-fluoro-2-(trifluoromethyl)phenyl]piperidine-1-carboxamide] |

| SMILES | IC50 Ratio JAK2/JAK1 [1] | IC50 [2] |
| --- | --- | --- |
| N#CCC1(n2cc(-c3ncnc4[nH]ccc34)cn2)CN(C2CC3CCC(C2)N3C(=O)c2ccnc(C(F)(F)F)c2)C1 (stereo not drawn) [Example 144, (3-[4-(7H-pyrrolo[2,3-d]pyrimidin-4-yl)-1H-pyrazol-1-yl]-1-{8-[2-(trifluoromethyl)isonicotinoyl]-8-azabicyclo[3.2.1]oct-3-yl}azetidin-3-yl)acetonitrile] | 3.9 |  |
| N#CCC1(n2cc(-c3ncnc4[nH]ccc34)cn2)CN(C2CC3CCC(C2)N3C(=O)C2CCCC2)C1 (stereo not drawn) [Example 145, {1-[8-(cyclopentylcarbonyl)-8-azabicyclo[3.2.1]oct-3-yl]-3-[4-(7H-pyrrolo[2,3-d]pyrimidin-4-yl)-1H-pyrazol-1-yl]azetidin-3-yl}acetonitrile] | 3.6 |  |
| N#CCC1(n2cc(-c3ncnc4[nH]ccc34)cn2)CN(C2CC3CCC(C2)N3C(=O)C2CCCCC2)C1 (stereo not drawn) [Example 147, {1-[8-(cyclohexylcarbonyl)-8-azabicyclo[3.2.1]oct-3-yl]-3-[4-(7H-pyrrolo[2,3-d]pyrimidin-4-yl)-1H-pyrazol-1-yl]azetidin-3-yl}acetonitrile] | 6.1 |  |
| N#CCC1(n2cc(-c3ncnc4[nH]ccc34)cn2)CN(C2CC3CCC(C2)N3C(=O)C2CCC(F)(F)CC2)C1 (stereo not drawn) [Example 148, {1-{8-[(4,4-difluorocyclohexyl)carbonyl]-8-azabicyclo[3.2.1]oct-3-yl}-3-[4-(7H-pyrrolo[2,3-d]pyrimidin-4-yl)-1H-pyrazol-1-yl]azetidin-3-yl}acetonitrile] | 5.7 | ≤ 5 nM |
